Reference: patent US20140066431A1, “Benzoxazepines as Inhibitors of PI3K/mTOR and Methods of Their Use and Manufacture” (Exelixis, Inc., priority 2010, published 2014)

Chains of the proteins cited; added tags and fusions are not shown. Lines headed by an entry give the natural chain unless they say otherwise; changes in a name come on top.
UniProt P42338: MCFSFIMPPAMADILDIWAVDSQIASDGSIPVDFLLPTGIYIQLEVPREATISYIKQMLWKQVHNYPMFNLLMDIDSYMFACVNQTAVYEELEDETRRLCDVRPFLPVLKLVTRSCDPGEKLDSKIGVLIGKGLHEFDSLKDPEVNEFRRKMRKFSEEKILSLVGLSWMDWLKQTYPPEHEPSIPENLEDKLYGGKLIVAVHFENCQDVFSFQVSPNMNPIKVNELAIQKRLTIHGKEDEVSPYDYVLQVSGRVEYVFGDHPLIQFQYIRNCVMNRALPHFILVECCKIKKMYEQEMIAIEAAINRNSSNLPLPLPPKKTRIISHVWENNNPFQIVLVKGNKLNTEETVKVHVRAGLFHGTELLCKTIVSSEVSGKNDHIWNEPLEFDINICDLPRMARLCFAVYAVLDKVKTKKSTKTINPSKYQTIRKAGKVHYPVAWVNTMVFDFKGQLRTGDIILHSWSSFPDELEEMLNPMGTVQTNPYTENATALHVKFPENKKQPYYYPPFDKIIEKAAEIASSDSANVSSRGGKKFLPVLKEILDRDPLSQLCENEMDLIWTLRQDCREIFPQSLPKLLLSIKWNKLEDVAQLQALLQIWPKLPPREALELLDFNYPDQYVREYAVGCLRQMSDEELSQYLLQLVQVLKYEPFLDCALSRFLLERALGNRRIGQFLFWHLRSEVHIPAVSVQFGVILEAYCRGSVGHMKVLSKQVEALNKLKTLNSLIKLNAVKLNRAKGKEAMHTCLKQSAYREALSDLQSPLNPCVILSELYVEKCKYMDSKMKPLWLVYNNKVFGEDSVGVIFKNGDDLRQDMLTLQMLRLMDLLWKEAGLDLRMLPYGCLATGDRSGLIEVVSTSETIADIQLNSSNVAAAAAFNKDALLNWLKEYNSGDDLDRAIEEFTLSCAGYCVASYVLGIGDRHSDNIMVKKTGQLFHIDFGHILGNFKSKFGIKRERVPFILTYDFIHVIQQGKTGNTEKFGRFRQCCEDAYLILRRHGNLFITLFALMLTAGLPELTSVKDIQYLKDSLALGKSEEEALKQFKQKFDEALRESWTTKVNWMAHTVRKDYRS

Assays:
[1] = test system: PC3 (PTEN null) cellular model; test: pAKT (T308) ELISA assay, PC3; type: cell-based; conditions: Homo sapiens; LPA stimulation
Description: In another embodiment, the pAKT ELISA Assay was performed by seeding cells onto 96-well plates (Corning, 3904) in their respective growth media at the densities listed in Table 3. Cells were incubated at 37° C., 5% CO2 for 48 h (except MDA-MB-453 cells which were cultured in the absence of CO2). Compounds were serially diluted in DMSO and subsequently diluted in serum-free DMEM. Test compounds were added to cells in serum-free DMEM at a final concentration of 0.3% DMSO and incubated for 3 h. Cells were lysed with 130 μL of ice-cold RIPA lysis buffer (50 mM Tris-HCl, pH 7.5; 0.5% sodium deoxycholic acid; 1% Triton X-100; 0.1% SDS; 150 mM NaCl) with protease and phosphatase inhibitors (1 mM EDTA, 1 mM NaF, 20 mM β-glycerophosphate, 1 mM Na-orthovanadate, Complete-Mini EDTA-free, Roche, 11836170001, and Phosphatase Inhibitor Cocktail I, Sigma, P2850), directly in 96-well plates. Cells were lysed on ice for 60-120 min at 4° C. The supernatants were added directly to capture ELISA plates previously pre-coated with rabbit anti-AKT capture antibody. […] The wells were measured for luminescence using a Wallac plate reader at wavelength of 560 nm. After normalization of pAKT signal to total AKT1 signal, IC50 values were determined relative to the DMSO-treated control.

[2] = molecular target: PI3Kβ (Homo sapiens, UniProt P42338); test: PI3K biochemical assay, PI3Kβ; conditions: PIP2 as substrate
Description: PI3Kα activity is measured as the percent of ATP consumed following the kinase reaction using luciferase-luciferin-coupled chemiluminescence. Reactions were conducted in 384-well white, medium binding microtiter plates (Greiner). Kinase reactions were initiated by combining test compounds, ATP, substrate (PIP2), and kinase in a 20 μL volume in a buffer solution. The standard PI3Kalpha assay buffer is composed 50 mM Tris, pH 7.5, 1 mM EGTA, 10 mM MgCl2, 1 mM DTT and 0.03% CHAPS. The standard assay concentrations for enzyme, ATP, and substrate are 1.5 nM, 1 μM, and 10 μM, respectively. The reaction mixture was incubated at ambient temperature for approximately 2 h. Following the kinase reaction, a 10 μL aliquot of luciferase-luciferin mix (Promega Kinase-Glo) was added and the chemiluminescence signal measured using a Victor2 plate reader (Perkin Elmer). Total ATP consumption was limited to 40-60% and IC50 values of control compounds correlate well with literature references. Substituting PI3Kα with PI3Kβ, PI3Kγ, or PI3Kδ, the inhibitory activity of the compounds for the other isoforms of I3K were measured.

IC50 [1]: 0.016 µM
IC50 [2]: 0.016 µM
Compound: Cc1cc(C(C)Nc2ccccc2)c2nc(N3CCOCC3)cc(=O)n2c1 (centres unmarked) [TGX-221, 7-methyl-2-(4-morpholinyl)-9-[1-(phenylamino)ethyl]-4H-pyrido[1,2-a]pyrimidin-4-one]
